Earlier results as cited in patent US20170307631A1, “METHODS, SYSTEMS AND PRODUCTS FOR PREDICTING RESPONSE OF TUMOR CELLS TO A THERAPEUTIC AGENT AND TREATING A PATIENT ACCORDING TO THE PREDICTED RESPONSE” (Merrimack Pharmaceuticals, Inc., priority 2008, published 2017).

Tested on: tumors known to express ErbB1 (EGFR)
Details: patients, even when tumors are known to express ErbB1 (EGFR); cited from earlier work

Substance: cetuximab
- average response rate for monotherapy: 15-20 % of patients
